This note sets out measurements from patent US20240116920A1 (priority 2020, published 2024).

Chains of the proteins cited; added tags and fusions are not shown. Lines headed by an entry give the natural chain unless they say otherwise; changes in a name come on top.
UniProt P23458: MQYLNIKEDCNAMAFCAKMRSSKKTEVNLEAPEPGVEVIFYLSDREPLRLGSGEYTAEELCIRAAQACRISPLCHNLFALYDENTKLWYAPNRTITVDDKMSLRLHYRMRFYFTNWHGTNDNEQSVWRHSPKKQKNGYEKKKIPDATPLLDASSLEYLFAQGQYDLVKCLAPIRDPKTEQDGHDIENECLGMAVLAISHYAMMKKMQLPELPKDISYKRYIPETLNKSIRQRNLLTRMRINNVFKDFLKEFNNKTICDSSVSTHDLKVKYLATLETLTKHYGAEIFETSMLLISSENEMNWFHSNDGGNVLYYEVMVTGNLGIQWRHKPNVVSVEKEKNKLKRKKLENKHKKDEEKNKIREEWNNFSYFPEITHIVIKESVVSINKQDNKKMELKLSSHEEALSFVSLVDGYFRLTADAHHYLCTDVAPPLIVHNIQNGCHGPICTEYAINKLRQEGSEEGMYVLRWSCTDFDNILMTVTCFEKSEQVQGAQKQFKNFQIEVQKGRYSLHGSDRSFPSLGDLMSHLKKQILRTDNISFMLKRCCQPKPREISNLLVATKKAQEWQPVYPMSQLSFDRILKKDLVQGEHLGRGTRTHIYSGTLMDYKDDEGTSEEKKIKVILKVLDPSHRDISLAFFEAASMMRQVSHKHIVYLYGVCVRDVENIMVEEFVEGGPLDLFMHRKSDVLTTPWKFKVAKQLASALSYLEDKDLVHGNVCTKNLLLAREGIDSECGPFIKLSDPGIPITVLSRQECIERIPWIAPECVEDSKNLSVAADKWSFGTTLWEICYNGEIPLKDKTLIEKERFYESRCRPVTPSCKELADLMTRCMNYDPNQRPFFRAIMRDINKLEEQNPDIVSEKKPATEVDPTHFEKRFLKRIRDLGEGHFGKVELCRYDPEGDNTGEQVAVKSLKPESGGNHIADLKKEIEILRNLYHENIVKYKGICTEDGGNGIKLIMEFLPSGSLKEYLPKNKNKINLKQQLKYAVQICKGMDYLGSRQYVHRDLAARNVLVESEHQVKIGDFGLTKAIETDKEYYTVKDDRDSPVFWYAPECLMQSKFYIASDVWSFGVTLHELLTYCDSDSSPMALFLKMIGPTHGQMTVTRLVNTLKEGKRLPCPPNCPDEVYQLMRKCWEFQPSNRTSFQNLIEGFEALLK
UniProt P29597: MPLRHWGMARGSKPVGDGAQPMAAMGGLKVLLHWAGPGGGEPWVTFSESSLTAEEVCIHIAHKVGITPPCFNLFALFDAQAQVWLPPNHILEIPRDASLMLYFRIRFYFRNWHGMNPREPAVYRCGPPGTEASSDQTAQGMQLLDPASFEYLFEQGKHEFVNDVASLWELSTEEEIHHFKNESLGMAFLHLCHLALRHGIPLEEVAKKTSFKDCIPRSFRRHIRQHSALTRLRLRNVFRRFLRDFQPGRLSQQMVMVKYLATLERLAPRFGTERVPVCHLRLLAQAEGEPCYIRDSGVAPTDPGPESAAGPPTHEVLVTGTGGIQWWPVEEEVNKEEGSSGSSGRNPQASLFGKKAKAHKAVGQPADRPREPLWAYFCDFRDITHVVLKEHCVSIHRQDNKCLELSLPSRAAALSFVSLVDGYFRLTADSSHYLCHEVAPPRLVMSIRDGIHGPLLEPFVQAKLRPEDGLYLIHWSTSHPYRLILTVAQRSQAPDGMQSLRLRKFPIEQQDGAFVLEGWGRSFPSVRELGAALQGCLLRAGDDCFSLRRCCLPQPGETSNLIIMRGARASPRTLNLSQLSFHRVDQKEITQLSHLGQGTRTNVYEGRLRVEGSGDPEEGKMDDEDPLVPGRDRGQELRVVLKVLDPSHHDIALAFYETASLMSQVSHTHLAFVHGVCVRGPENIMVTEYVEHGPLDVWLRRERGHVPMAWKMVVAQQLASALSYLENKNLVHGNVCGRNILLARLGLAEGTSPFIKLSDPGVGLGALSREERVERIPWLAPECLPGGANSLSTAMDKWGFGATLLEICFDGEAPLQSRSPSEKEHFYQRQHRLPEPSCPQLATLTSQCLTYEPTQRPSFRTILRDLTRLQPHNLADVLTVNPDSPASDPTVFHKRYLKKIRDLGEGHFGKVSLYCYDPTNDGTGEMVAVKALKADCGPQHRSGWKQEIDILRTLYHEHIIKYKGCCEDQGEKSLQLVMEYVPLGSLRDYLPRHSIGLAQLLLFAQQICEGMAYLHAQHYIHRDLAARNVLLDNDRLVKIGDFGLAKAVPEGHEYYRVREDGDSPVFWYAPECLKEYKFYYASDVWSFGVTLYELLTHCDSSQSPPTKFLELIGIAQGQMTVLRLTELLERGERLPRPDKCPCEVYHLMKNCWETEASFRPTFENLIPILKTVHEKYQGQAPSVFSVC

Read-outs that look alike come from different tables or passages of the source.

Test [1] concerns the target T1, JAK1 (Homo sapiens, UniProt P23458). Particulars: read-out: IC50 JAK1.
Another test deals with TYK2 (Homo sapiens, UniProt P29597). In words: biochemical.
The target in test [2] is T1, JAK1. In words: biochemical.

What is called IC50 is the concentration needed to halve the response being measured. On to “4-(42R,4R)-1-(4-Chlorobenzyl)-2-methylpiperidin-4-yl)amino)-N-methyl-1H-pyrrolo[2,3-b]pyridine-5-carboxamide [56b]”, for which the IC50 on JAK1 [1] is 181 nM.

Consider “4-(42S,4S)-1-(4-Chlorobenzyl)-2-methylpiperidin-4-yl)amino)-N-methyl-1H-pyrrolo[2,3-b]pyridine-5-carboxamide [56a]”, for which, at JAK1 [1], the half-inhibitory concentration (IC50) stood at 0.552 nM.

As to `CNC(=O)c1cnc2[nH]ccc2c1NC1CCN(Cc2ccc(Cl)cn2)C(C)C1` (racemic) [47a, 4-((cis-14(5-Chloropyridin-2-yl)methyl)-2-methylpiperidin-4-yl)amino)-N-methyl-1H-pyrrolo[2,3-b]pyridine-5-carboxamide], the IC50 was found to be 40.3 nM at TYK2 and 0.734 nM on JAK1 [2].

For the compound `CNC(=O)c1cnc2[nH]ccc2c1N[C@@H]1CCN(Cc2cccc(C#N)n2)[C@H](C)C1` (racemic) [47b], the concentration for half-maximal inhibition (IC50) against TYK2 is 16.6 nM; at JAK1 [2], 3.75 nM.

On to `CNC(=O)c1cnc2[nH]ccc2c1N[C@@H]1CCN(Cc2ccc(C#N)cn2)[C@H](C)C1` (racemic) [47c], for which the figures for the IC50 against TYK2 and against JAK1 [2] were 44.9 nM and 6.72 nM, respectively.

Turning to `CNC(=O)c1cnc2[nH]ccc2c1N[C@@H]1CCN(Cc2ccc(C(F)(F)F)cn2)[C@H](C)C1` (racemic) [47d], the IC50 at TYK2 came to 57.2 nM; at JAK1 [2], 1.94 nM.

For the compound `CNC(=O)c1cnc2[nH]ccc2c1N[C@@H]1CCN(Cc2ccc(Cl)nc2)[C@H](C)C1` (racemic) [48a], the values for the IC50 against TYK2 and against JAK1 [2] were 31.6 nM and 3.31 nM, respectively.

Turning to `CNC(=O)c1cnc2[nH]ccc2c1N[C@@H]1CCN(Cc2ccc(C#N)nc2)[C@H](C)C1` (racemic) [48b], 13.1 nM corresponded to half-maximal inhibition on TYK2 (IC50).

The compound `CNC(=O)c1cnc2[nH]ccc2c1N[C@@H]1CCN(Cc2cnc(C(F)(F)F)nc2)[C@H](C)C1` (racemic) [compound 49] registered an IC50 at JAK1 [2] of 3.04 nM.

In the case of `CNC(=O)c1cnc2[nH]ccc2c1N[C@@H]1CCN(Cc2ccccc2)C[C@H]1F` (relative stereo) [43a, 4-((trans-1-Benzyl-3-fluoropiperidin-4-yl)amino)-N-methyl-1H-pyrrolo[2,3-b]pyridine-5-carboxamide], the midpoint of inhibition against JAK1 [2], the IC50, lay at 35.3 nM.

`CNC(=O)c1cnc2[nH]ccc2c1N[C@@H]1CCN(Cc2ccc(Cl)cc2)C[C@H]1F` (relative stereo) [43b, 4-((trans-1-(4-Chlorobenzyl)-3-fluoropiperidin-4-yl)amino)-N-methyl-1H-pyrrolo[2,3-b]pyridine-5-carboxamide] returned an IC50 on JAK1 [2] of 48.4 nM.

At JAK1 [2], `CNC(=O)c1cnc2[nH]ccc2c1N[C@@H]1CCN(Cc2cccc(OC)c2)C[C@H]1F` (relative stereo) [43c, 4-((trans-1-(3-Methoxybenzyl)-3-fluoropiperidin-4-yl)amino)-N-methyl-1H-pyrrolo[2,3-b]pyridine-5-carboxamide] yielded an IC50 of 16.5 nM.

Turning to `CNC(=O)c1cnc2[nH]ccc2c1N[C@@H]1CCN(Cc2cccc(C#N)c2)C[C@H]1F` (relative stereo) [43e, 4-((trans-1-(3-Cyanobenzyl)-3-fluoropiperidin-4-yl)amino)-N-methyl-1H-pyrrolo[2,3-b]pyridine-5-carboxamide], the IC50 against JAK1 [2] came out at 15 nM.

On JAK1 [2], `CNC(=O)c1cnc2[nH]ccc2c1N[C@@H]1CCN(Cc2ccc(C#N)cc2)C[C@H]1F` (relative stereo) [43f, 4-((trans-1-(4-Cyanobenzyl)-3-fluoropiperidin-4-yl)amino)-N-methyl-1H-pyrrolo[2,3-b]pyridine-5-carboxamide] registered an IC50 of 11.8 nM.

As for `CNC(=O)c1cnc2[nH]ccc2c1N[C@H]1CCN(Cc2ccccc2)C[C@H]1F` (relative stereo) [44a, 4-((cis-1-Benzyl-3-fluoropiperidin-4-yl)amino)-N-methyl-1H-pyrrolo[2,3-b]pyridine-5-carboxamide], on JAK1 [2], the IC50 came to 12 nM.

As for `CNC(=O)c1cnc2[nH]ccc2c1N[C@H]1CCN(Cc2cccc(Cl)c2)C[C@H]1F` (relative stereo) [44b, 4-((cis-1-(3-Chlorobenzyl)-3-fluoropiperidin-4-yl)amino)-N-methyl-1H-pyrrolo[2,3-b]pyridine-5-carboxamide], half-maximal inhibition at JAK1 [2] (IC50) required 6.39 nM.

As for `CNC(=O)c1cnc2[nH]ccc2c1N[C@H]1CCN(Cc2ccc(Cl)cc2)C[C@H]1F` (relative stereo) [44c, 4-((cis-1-(4-Chlorobenzyl)-3-fluoropiperidin-4-yl)amino)-N-methyl-1H-pyrrolo[2,3-b]pyridine-5-carboxamide], half-maximal inhibition against JAK1 [2] (IC50) was put at 4.24 nM.

As for `CNC(=O)c1cnc2[nH]ccc2c1N[C@H]1CCN(Cc2ccc(OC)cc2)C[C@H]1F` (relative stereo) [44d, 4-((cis-1-(4-Methoxybenzyl)-3-fluoropiperidin-4-yl)amino)-N-methyl-1H-pyrrolo[2,3-b]pyridine-5-carboxamide], the IC50 on JAK1 [2] came to 7.27 nM.

`CNC(=O)c1cnc2[nH]ccc2c1N[C@H]1CCN(Cc2cccc(C#N)c2)C[C@H]1F` (relative stereo) [44e, 4-((cis-1-(3-Cyanobenzyl)-3-fluoropiperidin-4-yl)amino)-N-methyl-1H-pyrrolo[2,3-b] pyridine-5-carboxamide] displayed an IC50 against JAK1 [2] of 3.15 nM.

In turn, `CNC(=O)c1cnc2[nH]ccc2c1N[C@H]1CCN(Cc2ccc(C#N)cc2)C[C@H]1F` (relative stereo) [44f, 4-((cis-1-(4-Cyanobenzyl)-3-fluoropiperidin-4-yl)amino)-N-methyl-1H-pyrrolo[2,3-b]pyridine-5-carboxamide] returned an IC50 against JAK1 [2] of 8.32 nM.

For the compound `CNC(=O)c1cnc2[nH]ccc2c1N[C@H]1CCN(Cc2ccccc2F)[C@@H](C)C1` (relative stereo) [46a, 4-((cis-1-(2-Fluorobenzyl)-2-methylpiperidin-4-yl)amino)-N-methyl-1H-pyrrolo[2,3-b]pyridine-5-carboxamide], the IC50 against TYK2 was determined as 38.7 nM; against JAK1 [2], 13 nM.

Regarding `CNC(=O)c1cnc2[nH]ccc2c1N[C@H]1CCN(Cc2cccc(F)c2)[C@@H](C)C1` (relative stereo) [46b, 4-((cis-1-(3-Fluorobenzyl)-2-methylpiperidin-4-yl)amino)-N-methyl-1H-pyrrolo[2,3-b]pyridine-5-carboxamide], the IC50 on TYK2 was found to be 75.9 nM; against JAK1 [2] it was 21.2 nM.

`CNC(=O)c1cnc2[nH]ccc2c1N[C@H]1CCN(Cc2ccc(F)cc2)[C@@H](C)C1` (relative stereo) [46c, 4-((cis-1-(4-Fluorobenzyl)-2-methylpiperidin-4-yl)amino)-N-methyl-1H-pyrrolo[2,3-b]pyridine-5-carboxamide]: the IC50 against TYK2 is 8.42 nM; on JAK1 [2], 3.44 nM.

Consider `CNC(=O)c1cnc2[nH]ccc2c1N[C@H]1CCN(Cc2ccc(C(F)(F)F)nc2)[C@@H](C)C1` (relative stereo) [48c, N-Methyl-4-((cis-2-methyl-1-((6-(trifluoromethyl)pyridin-3-yl)methyl)piperidin-4-yl)amino)-1H-pyrrolo[2,3-b]pyridine-5-carboxamide], for which the IC50 against TYK2 turned out to be 74.9 nM; against JAK1 [2] it was 3.65 nM.

Turning to `CNC(=O)c1cnc2[nH]ccc2c1NC1CCN(Cc2ccc(OC)cc2)CC1F` (stereo not drawn) [43d, 4-((trans-1-(4-Methoxybenzy0-3-fluoropiperidin-4-yl)amino)-N-methyl-1H-pyrrolo[2,3-b]pyridine-5-carboxamide], it took 73.6 nM to reach half-maximal inhibition on JAK1 [2] (IC50).

Take `CNC(=O)c1cnc2[nH]ccc2c1NC1CCN(Cc2ccccc2)CC1(F)F` (centres unmarked) [45a]: the IC50 against JAK1 [2] was determined as 105 nM.

On JAK1 [2], `CNC(=O)c1cnc2[nH]ccc2c1NC1CCN(Cc2cccc(Cl)c2)CC1(F)F` (centres unmarked) [45b] gave a concentration for half-maximal inhibition (IC50) of 63.2 nM.

For the compound `CNC(=O)c1cnc2[nH]ccc2c1NC1CCN(Cc2ccc(Cl)cc2)CC1(F)F` (centres unmarked) [45c], the IC50 against JAK1 [2] is 45.5 nM.

On JAK1 [2], `CNC(=O)c1cnc2[nH]ccc2c1NC1CCN(Cc2cccc(OC)c2)CC1(F)F` (centres unmarked) [45d] registered an IC50 of 365 nM.

`CNC(=O)c1cnc2[nH]ccc2c1NC1CCN(Cc2ccc(OC)cc2)CC1(F)F` (centres unmarked) [45e] came in with an IC50 against JAK1 [2] of 118 nM.

The compound `CNC(=O)c1cnc2[nH]ccc2c1NC1CCN(Cc2cccc(C#N)c2)CC1(F)F` (centres unmarked) [45f] returned a half-inhibitory concentration (IC50) at JAK1 [2] of 205 nM.

On JAK1 [2], `CNC(=O)c1cnc2[nH]ccc2c1NC1CCN(Cc2ccc(C#N)cc2)CC1(F)F` (centres unmarked) [45g] had an IC50 of 252 nM.

`CNC(=O)c1cnc2[nH]ccc2c1NC1CCN(Cc2ccccc2)C(C)(C)C1` (centres unmarked) [50a, 4-((1-Benzyl-2,2-dimethylpiperidin-4-yl)amino)-N-methyl-1H-pyrrolo[2,3-b]pyridine-5-carboxamide] had an IC50 against JAK1 [2] of 54.7 nM.

The compound `CNC(=O)c1cnc2[nH]ccc2c1NC1CCN(Cc2cccc(Cl)c2)C(C)(C)C1` (centres unmarked) [50b, 4-((1-(3-Chlorobenzyl)-2,2-dimethylpiperidin-4-yl)amino)-N-methyl-1H-pyrrolo[2,3-b]pyridine-5-carboxamide] came in with an IC50 on JAK1 [2] of 17.1 nM.

In the case of `CNC(=O)c1cnc2[nH]ccc2c1NC1CCN(Cc2ccc(Cl)cc2)C(C)(C)C1` (centres unmarked) [50c], 125 nM corresponded to half-maximal inhibition on JAK1 [2] (IC50).
